From publication PMC11365140 (Cell & Bioscience, 2024)

The chains behind the UniProt entries cited, without tags or fusion partners. Residues count along the entry.
UniProt P43220, 24-463: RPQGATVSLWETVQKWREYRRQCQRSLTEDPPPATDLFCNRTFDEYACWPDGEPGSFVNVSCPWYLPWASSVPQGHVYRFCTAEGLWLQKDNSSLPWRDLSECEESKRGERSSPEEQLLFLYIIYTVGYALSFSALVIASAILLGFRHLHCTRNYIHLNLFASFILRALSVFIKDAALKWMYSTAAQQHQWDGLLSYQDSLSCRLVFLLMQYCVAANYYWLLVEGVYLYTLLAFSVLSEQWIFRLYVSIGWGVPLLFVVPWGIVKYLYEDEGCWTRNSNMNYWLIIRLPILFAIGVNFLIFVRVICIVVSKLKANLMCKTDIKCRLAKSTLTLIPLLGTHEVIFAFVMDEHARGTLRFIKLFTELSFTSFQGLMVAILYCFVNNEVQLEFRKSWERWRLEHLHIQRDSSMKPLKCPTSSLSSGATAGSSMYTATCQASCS

Target: GLP-1R (GLP-1 receptor) stably expressed in HEK293 cells (UniProt P43220)

cAMP accumulation in HEK293 cells stably expressing GLP-1R, dose-response (EC50): 1.35 nM
Substance: glucagon (ligand)
